Laboratory results published in patent publication US8748491B2, “Dietary and pharmaceutical compositions containing tricyclic diterpenes and their derivatives and their uses” (priority 2006, dated 2014).

System: mouse
Test: Porsolt's forced swim test (FST)
Assay type: in vivo
Settings: 10 mg/kg i.p., −30 min
Procedure: Mice were individually placed in cylinders (24.5 cm height, 19.5 cm internal diameter) containing 13.5 cm depth of water (22±0.5° C.) for a period of 6 minutes, behavioural parameters of interest being analysed during the final 4 minutes of the test, since the first 2 minutes include vigorous activity. Six cylinders were placed in a Perspex box, thus enabling six mice to be tested simultaneously.
Automatic monitoring of swim tests was enabled through the use of VideoMot2 software (TSE Technical and Scientific Equipment GmbH, Bad Homburg, Germany). All to experiments were observed via a black and white CCD camera. The rest:locomotion and stop:start thresholds, as determined by setting parameters in the software programme, determine the number of pixels which must change for a movement to be registered, enabling the software to determine whether a mouse is swimming or resting. The parameters which are automatically recorded include: rest time and locomotion time (ms), % rest and % locomotion, distance travelled (cm), speed of travel (cm/s) and number of stops.
Data were analysed by comparing treated groups with the untreated control group using Fisher's PLSD (StatView, SAS Institute Inc., Cary, N.C., USA)

SMILES: CNCCC(Oc1ccc(C(F)(F)F)cc1)c1ccccc1 (stereo not shown) [Fluoxetine, fluoxetine, reference compound]
- Duration of immobility (% change from control): −41%
